Tested on: phosphorylated FGFR2, AKT, and ERK1/2
Assay: Western blot of phosphorylated FGFR2, AKT and ERK1/2 in xenograft tumors
Type: in vivo, BALB/C‐nu/nu mice
Settings: tumor tissue of xenograft mice

Substance: AZD4547 [reference compound]
- phosphorylation of FGFR2, AKT, and ERK1/2: reduced

From publication PMC8491194, “A cyclic peptide retards the proliferation of DU145 prostate cancer cells in vitro and in vivo through inhibition of FGFR2” (MedComm, 2020)
